Measured values: PubChem BioAssay AID1434 (Sanford-Burnham Center for Chemical Genomics, 2008)
This is a selection; strong and weak results do not stand in their true shares. Some of these compounds have results that are not shown, active ones among them. Calls of active or inactive are those of the source.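 The calls were made as follows: active = mean inhibition across duplicate retests at 20 µM reaching about 50% (limit read from the data); inactive = the rest, inconclusive results apart.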

Sequences of proteins named here, by UniProt entry; tags and fusion partners are left off.
UniProt Q01196, whole entry, looked up: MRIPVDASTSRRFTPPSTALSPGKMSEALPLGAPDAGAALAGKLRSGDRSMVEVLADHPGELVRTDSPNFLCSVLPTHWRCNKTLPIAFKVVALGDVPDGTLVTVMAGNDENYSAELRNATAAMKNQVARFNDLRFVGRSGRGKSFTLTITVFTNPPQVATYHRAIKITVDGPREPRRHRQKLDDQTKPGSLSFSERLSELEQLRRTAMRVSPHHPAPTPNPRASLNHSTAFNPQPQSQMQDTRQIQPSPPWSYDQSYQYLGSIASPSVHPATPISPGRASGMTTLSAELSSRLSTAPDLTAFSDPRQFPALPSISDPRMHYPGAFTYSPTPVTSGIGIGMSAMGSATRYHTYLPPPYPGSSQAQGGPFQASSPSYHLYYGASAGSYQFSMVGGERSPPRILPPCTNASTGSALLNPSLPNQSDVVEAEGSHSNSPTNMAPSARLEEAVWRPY
UniProt Q13951, whole entry, looked up: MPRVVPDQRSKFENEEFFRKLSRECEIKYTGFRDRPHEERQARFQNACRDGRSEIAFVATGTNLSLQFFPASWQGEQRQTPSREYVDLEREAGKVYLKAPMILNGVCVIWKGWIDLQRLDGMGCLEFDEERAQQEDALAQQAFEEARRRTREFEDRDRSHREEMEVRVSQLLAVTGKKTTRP

Target: Runt-related transcription factor 1 (Homo sapiens) + Core-binding factor subunit beta (Homo sapiens) (UniProt Q01196+Q13951)
Assay: disruptors of Runt domain/CBFb-SMMHC interaction – biochemical, FRET, Cerulean-Runt, Venus-CBFb-SMMHC, uHTS, primary screen (AID 1434);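 also: 0% = DMSO wells and 100% = wells with excess untagged CBFb-SMMHC; inhibitors lower the FRET ratio by blocking Runt binding to CBFb-SMMHC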
Conditions: Cerulean-Runt/Venus-CBFb-SMMHC FRET ratio 530/480, 1 h; at 20 µM; stronger effect = higher value

Row | Structure (SMILES) | inhibition
1 | O=C(OC1CN2CCC1CC2)C(CO)(c1ccccc1)c1ccccc1 (stereo unspecified) | inactive: -2.6%
2 | COc1ccc(Br)c(C(=O)NCC2(N3CCCCC3)CCCCC2)c1 | inactive: -1.8%
3 | CN(C)c1cccc(C(=O)NCC2(N(C)C)CCCCC2)c1 | inactive: 13.9%
4 | COc1cccc(C(=O)NCC2(N3CCCCC3)CCCCC2)c1 | inactive: -1.7%
5 | Cc1ccccc1C(=O)NCC1(N2CCCCC2)CCCCC1 | inactive: 10.9%
6 | CN(C)C1CCCC1OC(=O)C(O)(c1ccccc1)c1ccccc1 (stereo unspecified) | inactive: 0.6%
7 | C=CCN1CCN(CCOC(=O)C(O)(c2ccccc2)c2ccccc2)CC1 | inactive: -0.8%
8 | CCN1CCCC(OC(=O)C2(O)c3ccccc3C=Cc3ccccc32)C1 (stereo unspecified) | inactive: 0.6%
9 | O=C(NCC1(N2CCCCC2)CCCCC1)c1cc([N+](=O)[O-])ccc1Cl | inactive: 0.2%
10 | CCN(CC)CC(C)C(C)OC(=O)C(O)(c1ccccc1)c1ccccc1 (stereo unspecified) | inactive: -1.1%
11 | CC(C)N1C(=O)CC2(CCN(CCOC(=O)C(O)(c3ccccc3)c3ccccc3)CC2)C1=O | inactive: -7.9%
